Source: ChEMBL document CHEMBL4334432, “Development of benzochalcone derivatives as selective CYP1B1 inhibitors and anticancer agents” (Medchemcomm, 2019)

Target: T1, Cytochrome P450 1B1 (Homo sapiens, UniProt Q16678)
T1 sequence (Q16678 whole entry): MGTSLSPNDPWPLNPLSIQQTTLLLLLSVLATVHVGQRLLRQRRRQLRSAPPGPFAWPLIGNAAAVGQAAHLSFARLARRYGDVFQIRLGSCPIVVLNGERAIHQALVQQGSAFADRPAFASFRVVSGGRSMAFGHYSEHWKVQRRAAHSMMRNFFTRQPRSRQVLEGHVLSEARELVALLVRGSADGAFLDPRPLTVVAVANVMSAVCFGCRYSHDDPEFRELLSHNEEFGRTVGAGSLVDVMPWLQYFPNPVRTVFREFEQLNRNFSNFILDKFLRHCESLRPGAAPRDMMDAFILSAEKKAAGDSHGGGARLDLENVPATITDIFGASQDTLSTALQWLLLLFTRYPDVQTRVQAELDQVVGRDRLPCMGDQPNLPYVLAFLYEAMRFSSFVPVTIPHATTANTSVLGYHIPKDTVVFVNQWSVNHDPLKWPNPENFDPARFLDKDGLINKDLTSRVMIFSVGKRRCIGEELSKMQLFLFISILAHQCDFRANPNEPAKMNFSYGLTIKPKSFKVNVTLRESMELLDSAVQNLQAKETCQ
Assay: Inhibition of recombinant human CYP1B1 expressed in supersomes using 7-ethoxyresorufin as substrate after 35 mins in presence of NADP+ by EROD assay

IC50: 5.9 nM
Structure (SMILES): O=c1cc(-c2ccccc2)oc2c1ccc1ccccc12 [ALPHA-NAPHTHOFLAVONE]
